Measured values: patent publication US9091804B2, “Polymer film, and optically-compensatory film, polarizer and liquid-crystal display device comprising the same” (FUJIFILM Corporation, priority 2004, dated 2015)

Experiments:
[1] = solubility in 1.5 mol/liter aqueous NaOH at 55° C. (visual); conditions: 1.5 mol/liter NaOH at 55° C., visual observation
[2] = pKa by potentiometric titration in DMSO/water=7/3

SMILES | Solubility [1] [%] | pKa [2]
O=P12OCC(C34CC5CC(CC(C5)C3)C4)(CO1)CO2 | <1 | > 14
O=P12OCC(COC(c3ccccc3)(c3ccccc3)c3ccccc3)(CO1)CO2 | <1 | > 14
